Earlier results in patent publication US12291505B2, “Methods for the synthesis of deuterated dextromethorphan” (AVANIR PHARMACEUTICALS, INC., priority 2016, dated 2025).

Conditions: co-administered with dextromethorphan

CNCCC(Oc1ccc(C(F)(F)F)cc1)c1ccccc1 (stereo not shown) [fluoxetine]
effect on dextromethorphan in the blood: effective in increasing dextromethorphan concentrations in the blood of some people
